Measurements taken from patent publication US20260217824A1 (Bristol-Myers Squibb, published 2026).
Values joined by “and” are separate entries in the source; they are usually repeats but may differ in a detail not shown here. Identical values can stand only once.

Sequences of proteins named here, by UniProt entry; tags and fusion partners are left off. Residues count along the entry.
UniProt Q9NP99, 21-205 limits assumed: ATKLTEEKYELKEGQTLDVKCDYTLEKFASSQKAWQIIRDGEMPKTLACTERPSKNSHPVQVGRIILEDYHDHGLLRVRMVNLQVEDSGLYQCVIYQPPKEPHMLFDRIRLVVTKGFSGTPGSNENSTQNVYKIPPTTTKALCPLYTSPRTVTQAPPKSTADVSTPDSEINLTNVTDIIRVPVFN
UniProt Q9NP99, 21-234 limits assumed: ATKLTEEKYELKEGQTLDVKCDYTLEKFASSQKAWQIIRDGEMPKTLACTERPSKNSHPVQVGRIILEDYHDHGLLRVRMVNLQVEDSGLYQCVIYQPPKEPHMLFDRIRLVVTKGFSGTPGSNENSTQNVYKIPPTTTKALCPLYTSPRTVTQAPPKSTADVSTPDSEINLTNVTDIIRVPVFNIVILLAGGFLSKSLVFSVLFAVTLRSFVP

T1: CynoTREM1 (as named in Table 3) (cynomolgus)
T1 construct: also called cynomolgus TREM-1
T1 chain: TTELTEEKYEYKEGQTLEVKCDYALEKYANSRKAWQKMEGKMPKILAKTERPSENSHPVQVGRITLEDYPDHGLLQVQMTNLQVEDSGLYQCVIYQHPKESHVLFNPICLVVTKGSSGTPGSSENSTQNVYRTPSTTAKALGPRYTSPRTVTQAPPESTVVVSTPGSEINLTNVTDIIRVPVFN

T2: cynomolgus TREM-1 on cells (cynomolgus)
T2 construct: Endogenous receptor in dosed monkeys; also called TREM-1 receptors on peripheral blood monocytes and granulocytes of cynomolgus monkeys
T2 chain: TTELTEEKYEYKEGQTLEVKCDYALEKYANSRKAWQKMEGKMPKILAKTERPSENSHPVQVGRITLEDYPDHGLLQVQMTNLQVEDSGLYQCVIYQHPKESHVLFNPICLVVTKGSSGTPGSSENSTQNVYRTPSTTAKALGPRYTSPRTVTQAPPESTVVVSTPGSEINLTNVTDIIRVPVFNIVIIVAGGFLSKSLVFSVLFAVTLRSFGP


Tests used:
human TREM-1-Fc = target: T3, human TREM-1-Fc (human, UniProt Q9NP99 21-205, limits assumed); experiment: SPR kinetics (Example 1): anti-TREM-1 antibody captured on the chip, human TREM-1-Fc as analyte, 1:1 fit
T3 construct: also called hTREM-1; not shown: Fc part
Experimental: Binding studies were performed on a ProteOn Analyzer (BioRad) that measures molecular interactions in real time through surface plasmon resonance. Experiments were run at 25° C. and the samples were stored at 15° C. in the sample compartment. The signal (RU, response units) reported by the ProteOn is directly correlated to the mass on the individual sensor chip surfaces in the six parallel flow cells. Anti-human Fe monoclonal or anti-murine Fc polyclonal antibody from Biacore human or mouse Fc capture kits were immobilized in horizontal direction onto flow cells of a GLM sensor chip according to the manufacturer's instructions. The final immobilization level of capture antibody was approximately 2600-6000 RU in each experiment. The capture of purified monoclonal mouse or recombinantly expressed anti-hTREM-1 antibodies was conducted by diluting the antibodies to 5-10 nM into running buffer (10 mM Hepes 0.15 M NaCl, 5 mM EDTA, 0.05% surfactant P20, pH 7.4) followed by injection in vertical direction at 30 l/min for 60 see, creating reference interspots adjacent to all flow cells with only anti-Fc antibody immobilized. […] Binding of hTREM-1 or cTREM-1 proteins was conducted by injecting analyte (antigen) over all flow cells in horizontal direction to allow for comparative analyses of binding to different captured anti-TREM-1 antibodies relative to binding to the reference interspot. hTREM-1 or cTREM-1 proteins were diluted serially 1:3 to 1.2-100 nM or into running buffer, injected at 100 l/min for 250 s and allowed to dissociate for 600s. The GLM surface was regenerated after each injection cycle of analyte via two 18 s injections of 10 mM Glycine, pH 1.7 and 50 mM NaOH at 100 l/min. This regeneration step removed the anti-TREM-1 antibody and any bound TREM-1 protein from the immobilized capture antibody surface and allowed for the subsequent binding of the next interaction sample pair.

[1] = target: T1, CynoTREM1 (as named in Table 3); experiment: SPR (Biacore)
[2] = target: T4, huTREM1 (as named in Table 3) (human, UniProt Q9NP99 21-205, limits assumed); experiment: SPR (Biacore)
T4 construct: also called human TREM-1

human TREM-1 on cells [3] = target: T5, human TREM-1 on cells (human, UniProt Q9NP99 21-234); experiment: cell-based or functional assay
[4] = target: T2, cynomolgus TREM-1 on cells; experiment: estimate of the 2-compartment PK model with TMDD fitted to cynomolgus PK/RO/PD data (mAb off-rate from TREM-1)
Description: Monkey PK, RO, total receptor levels, and PD data were described using a 2-compartment PK model with saturable target-mediated drug disposition (TMDD) in the central compartment to accommodate for the observed non-linear PK (see Example 12 and FIG. 13). A direct-effect inhibitory model was used to describe the PD response. This model was able to effectively capture the time course of PK/RO/PD observed in the monkeys. The observed (open circle) and model-predicted endpoints (solid line) are provided in FIGS. 16A (0.1 mg/kg subcutaneous dosing) and 16B (10 mg/kg subcutaneous dosing).

human TREM-1 on cells [5] = target: T5, human TREM-1 on cells; experiment: cell-based or functional assay; remark: listed apart in the source

Row | Binder | Kd (human TREM-1-Fc) | koff (human TREM-1-Fc) [s⁻¹] | kon (human TREM-1-Fc) | koff [1] [s⁻¹] | kon [1] [M⁻¹ s⁻¹] | Kd [2] [nM] | koff [2] [s⁻¹] | kon [2] [M⁻¹ s⁻¹] | IC50 of IL-6 production, primary human cells stimulated with plate-bound PGRP1 and PGN-ECndss (human TREM-1 on cells [3]) [nM] | IC50 of IL-8 production, stimulated whole blood, HTRF (human TREM-1 on cells [3]) [nM] | IC50 of IL-8 production, stimulated whole blood, intracellular cytokine staining (ICS) (human TREM-1 on cells [3]) [nM] | koff [4] [s⁻¹] | IC50 (pM), CHI3L1 RNA, whole blood, Soluble PGRP + Soluble PGN-Ecndss (human TREM-1 on cells [5]) [pM] | IC50 (pM), IL1b RNA, whole blood, Soluble PGRP + Soluble PGN-Ecndss (human TREM-1 on cells [5]) [pM] | IC50 (pM), IL6 RNA, whole blood, Soluble PGRP + Soluble PGN-Ecndss (human TREM-1 on cells [5]) [pM]
1 | mAb 0318-IgG1-Aba (antibody, IgG1 constant region with K214R, C226S, C229S, P238S (EU); also called IgG1-Aba mod; FcAba-1) heavy: not shown light: DIVLTQSPDSLAVSLGERATINCRASQSVDTFDYSFLHWYQQKPGQPPKLLIYRASNLESGVPDRFSGSGSGTDFTLTISSLQAEDVAVYYCQQSNQDPYTFGQGTKLEIKRTVAAPSVFIFPPSDEQLKSGTASVVCLLNNFYPREAKVQWKVDNALQSGNSQESVTEQDSKDSTYSLSSTLTLSKADYEKHKVYACEVTHQGLSSPVTKSFNRGEC | 0.899 nM | 0.00145 | 1.62e+06 M⁻¹ s⁻¹ | – | – | – | – | – | – | – | – | – | – | – | –
2 | mAb 0318 (IgG4) (antibody, the rest is said to be IgG4) VH: not shown VL: DIVLTQSPDSLAVSLGERATINCRASQSVDTFDYSFLHWYQQKPGQPPKLLIYRASNLESGVPDRFSGSGSGTDFTLTISSLQAEDVAVYYCQQSNQDPYTFGQGTKLEIKRTVAAPSVFIFPPSDEQLKSGTASVVCLLNNFYPREAKVQWKVDNALQSGNSQESVTEQDSKDSTYSLSSTLTLSKADYEKHKVYACEVTHQGLSSPVTKSFNRGEC | 1.01 nM and 0.98 nM | 0.00143 | 1.42e+06 M⁻¹ s⁻¹ and 1.46e+06 M⁻¹ s⁻¹ | – | – | – | – | – | – | – | – | – | – | – | –

More lines, in order of falling Kd (human TREM-1-Fc), values ahead:

Row | Kd (human TREM-1-Fc) | koff (human TREM-1-Fc) [s⁻¹] | kon (human TREM-1-Fc) | koff [1] [s⁻¹] | kon [1] [M⁻¹ s⁻¹] | Kd [2] [nM] | koff [2] [s⁻¹] | kon [2] [M⁻¹ s⁻¹] | IC50 of IL-6 production, primary human cells stimulated with plate-bound PGRP1 and PGN-ECndss (human TREM-1 on cells [3]) [nM] | IC50 of IL-8 production, stimulated whole blood, HTRF (human TREM-1 on cells [3]) [nM] | IC50 of IL-8 production, stimulated whole blood, intracellular cytokine staining (ICS) (human TREM-1 on cells [3]) [nM] | koff [4] [s⁻¹] | IC50 (pM), CHI3L1 RNA, whole blood, Soluble PGRP + Soluble PGN-Ecndss (human TREM-1 on cells [5]) [pM] | IC50 (pM), IL1b RNA, whole blood, Soluble PGRP + Soluble PGN-Ecndss (human TREM-1 on cells [5]) [pM] | IC50 (pM), IL6 RNA, whole blood, Soluble PGRP + Soluble PGN-Ecndss (human TREM-1 on cells [5]) [pM] | Binder
3 | 0.889 nM | 0.00151 | 1.7e+06 M⁻¹ s⁻¹ | – | – | – | – | – | – | – | – | – | – | – | – | mAb 0318-IgG4-Aba (antibody, IgG4 CH1 with IgG1 CH2 and CH3, C226S, C229S, P238S (EU); also called IgG4-Aba mod; FcAba-4) heavy: not shown light: DIVLTQSPDSLAVSLGERATINCRASQSVDTFDYSFLHWYQQKPGQPPKLLIYRASNLESGVPDRFSGSGSGTDFTLTISSLQAEDVAVYYCQQSNQDPYTFGQGTKLEIKRTVAAPSVFIFPPSDEQLKSGTASVVCLLNNFYPREAKVQWKVDNALQSGNSQESVTEQDSKDSTYSLSSTLTLSKADYEKHKVYACEVTHQGLSSPVTKSFNRGEC
4 | 0.866 nM | 0.00142 | 1.64e+06 M⁻¹ s⁻¹ | – | – | – | – | – | – | – | – | – | – | – | – | mAb 0318-IgG1.1f (antibody, IgG1 constant region with L234A, L235E, G237A, A330S, P331S (EU)) heavy: EVQLVESGGGLVQPGGSLKLSCAASGFTFSTYAMHWVRQASGKGLEWVGRIRTKSSNYATYYAASVKGRFTISRDDSKNTAYLQMNSLKTEDTAVYYCTRDMGIRRQFAYWGQGTLVTVSSASTKGPSVFPLAPSSKSTSGGTAALGCLVKDYFPEPVTVSWNSGALTSGVHTFPAVLQSSGLYSLSSVVTVPSSSLGTQTYICNVNHKPSNTKVDKRVEPKSCDKTHTCPPCPAPEAEGAPSVFLFPPKPKDTLMISRTPEVTCVVVDVSHEDPEVKFNWYVDGVEVHNAKTKPREEQYNSTYRVVSVLTVLHQDWLNGKEYKCKVSNKALPSSIEKTISKAKGQPREPQVYTLPPSREEMTKNQVSLTCLVKGFYPSDIAVEWESNGQPENNYKTTPPVLDSDGSFFLYSKLTVDKSRWQQGNVFSCSVMHEALHNHYTQKSLSLSPG light: DIVLTQSPDSLAVSLGERATINCRASQSVDTFDYSFLHWYQQKPGQPPKLLIYRASNLESGVPDRFSGSGSGTDFTLTISSLQAEDVAVYYCQQSNQDPYTFGQGTKLEIKRTVAAPSVFIFPPSDEQLKSGTASVVCLLNNFYPREAKVQWKVDNALQSGNSQESVTEQDSKDSTYSLSSTLTLSKADYEKHKVYACEVTHQGLSSPVTKSFNRGEC
5 | 0.85 nM | 0.0014 | 1.65e+06 M⁻¹ s⁻¹ | 0.0014 | 400000 | 0.91 | 0.0013 | 1.4e+06 | ~0.032 | 0.012 | 0.0196 | 0.000103 | 4.58 | 11.2 | 97.7 | mAb 0318-IgG1.3f (antibody, IgG1 constant region with L234A, L235E, G237A (EU)) heavy: EVQLVESGGGLVQPGGSLKLSCAASGFTFSTYAMHWVRQASGKGLEWVGRIRTKSSNYATYYAASVKGRFTISRDDSKNTAYLQMNSLKTEDTAVYYCTRDMGIRRQFAYWGQGTLVTVSSASTKGPSVFPLAPSSKSTSGGTAALGCLVKDYFPEPVTVSWNSGALTSGVHTFPAVLQSSGLYSLSSVVTVPSSSLGTQTYICNVNHKPSNTKVDKRVEPKSCDKTHTCPPCPAPEAEGAPSVFLFPPKPKDTLMISRTPEVTCVVVDVSHEDPEVKFNWYVDGVEVHNAKTKPREEQYNSTYRVVSVLTVLHQDWLNGKEYKCKVSNKALPAPIEKTISKAKGQPREPQVYTLPPSREEMTKNQVSLTCLVKGFYPSDIAVEWESNGQPENNYKTTPPVLDSDGSFFLYSKLTVDKSRWQQGNVFSCSVMHEALHNHYTQKSLSLSPGK light: DIVLTQSPDSLAVSLGERATINCRASQSVDTFDYSFLHWYQQKPGQPPKLLIYRASNLESGVPDRFSGSGSGTDFTLTISSLQAEDVAVYYCQQSNQDPYTFGQGTKLEIKRTVAAPSVFIFPPSDEQLKSGTASVVCLLNNFYPREAKVQWKVDNALQSGNSQESVTEQDSKDSTYSLSSTLTLSKADYEKHKVYACEVTHQGLSSPVTKSFNRGEC
